Laboratory results taken from publication PMC3606182.

Target: recombinant Sec61β lacking the tail-anchor region, immobilized
Assay: pull-down; recombinant Sec61β with (+TA) or without (−TA) tail-anchor immobilised; [35S]-labelled wheat-germ translation product; processed as for SGTA; Triton X-100 sensitive binding read by phosphorimaging

signal as percent of that recovered with Sec61β+TA: < 3%
Substance: BAG6 (isoform 2), full length (from UniProt P46379-2 1-1126) (natural protein)
